# Tested on: Pronase
# Details: after one hour; 10 μM polypeptide, about 1 mg/mL Pronase, 37° C.
sequence,measurement,value
ATVKFTHQGEEKQVDISKIKWVIRWGQYINVFKYDENGGAKGWGYVSEKDAPKELLQMLKKR,polypeptide observed by LC-MS after incubation with Pronase,No L-R11.1.6 D36N was observed

# From US11834480B2 (priority 2020, dated 2023)
